We go through one sequence from the supplement of paper PMC5998384.

In data set [1] the test system is HeLa Kyoto. The experiment in a line: solubility in G1/S (NP-40 vs SDS abundance) (log2 ratio); higher = more soluble. The conditions noted are these: cell cycle stage: G1/S.
The subject of data set [2] is HeLa Kyoto. Kind of data set: solubility change mitosis vs G1/S (difference of NP-40 vs SDS log2 ratios) (log2 ratio difference); higher = more soluble in mitosis.
The subject of data set [3] is HeLa Kyoto. Kind of data set: melting temperature (median over replicates), in situ; higher = more thermally stable.
Data set [4] concerns HeLa Kyoto. Kind of data set: thermal stability score vs G1/S (z-score of summed log2 fold changes over temperatures); higher = more thermally stable than in G1/S.
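For melting temperature (median over replicates), in situ in this document: HeLa Kyoto cells synchronized by double thymidine or nocodazole block, proteins quantified by TMT10plex mass spectrometry, three independent biological replicates.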
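For solubility change mitosis vs G1/S (difference of NP-40 vs SDS log2 ratios) in this document: synchronized HeLa Kyoto cells (double thymidine block for G1/S, nocodazole release for mitosis), protein amounts in NP-40 versus SDS lysates quantified by mass spectrometry, three biological replicates.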
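For solubility in G1/S (NP-40 vs SDS abundance) in this document: HeLa Kyoto cells arrested at G1/S by double thymidine block, proteins quantified by TMT10plex mass spectrometry in mild NP-40 versus SDS extracts, three biological replicates.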
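For thermal stability score vs G1/S (z-score of summed log2 fold changes over temperatures) in this document: synchronized HeLa Kyoto cells, proteins quantified by TMT10plex mass spectrometry, three biological replicates, mitosis taken 0.5 h after nocodazole release, G1/S directly after double thymidine block.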

On to “MYPQGRHPAPHQPGQPGFKFTVAESCDRIKDEFQFLQAQYHSLKVEYDKLANEKTEMQRHYVMYYEMSYGLNIEMHKQTEIAKRLNTILAQIMPFLSQEHQQQVAQAVERAKQVTMTELNAIIGQQQLQAQHLSHATHGPPVQLPPHPSGLQPPGIPPVTGSSSGLLALGALGSQAHLTVKDEKNHHELDHRERESSANNSVSPSESLRASEKHRGSADYSMEAKKRKAEEKDSLSRYDSDGDKSDDLVVDVSNEDPATPRVSPAHSPPENGLDKARSLKKDAPTSPASVASSSSTPSSKTKDLGHNDKSSTPGLKSNTPTPRNDAPTPGTSTTPGLRSMPGKPPGMDPIGIMASALRTPISITSSYAAPFAMMSHHEMNGSLTSPGAYAGLHNIPPQMSAAAAAAAAAYGRSPMVSFGAVGFDPHPPMRATGLPSSLASIPGGKPAYSFHVSADGQMQPVPFPHDALAGPGIPRHARQINTLSHGEVVCAVTISNPTRHVYTGGKGCVKIWDISQPGSKSPISQLDCLNRDNYIRSCKLLPDGRTLIVGGEASTLTIWDLASPTPRIKAELTSSAPACYALAISPDAKVCFSCCSDGNIAVWDLHNQTLVRQFQGHTDGASCIDISHDGTKLWTGGLDNTVRSWDLREGRQLQQHDFTSQIFSLGYCPTGEWLAVGMESSNVEVLHHTKPDKYQLHLHESCVLSLKFAYCGKWFVSTGKDNLLNAWRTPYGASIFQSKESSSVLSCDISADDKYIVTGSGDKKATVYEVIY [TLE3]”, for which the “solubility in G1/S (log2)” value in the data set with HeLa Kyoto [1] is 0.0484. Besides, the “solubility change mitosis (log2)” value with HeLa Kyoto [2] was -0.119. Moreover, the values for the melting temperature in the data set on HeLa Kyoto [3] (cell cycle stage: G1/S) and with HeLa Kyoto [3] (cell cycle stage: mitosis) were 53 °C and 53.4 °C, respectively. The thermal stability score was found to be 0.817 in the data set with HeLa Kyoto [4] (cell cycle stage: early G1 (4.5 h after nocodazole release)) and 0.644 in the data set on HeLa Kyoto [4] (cell cycle stage: mitosis).
